Experimental data from PMC9820646, “Identification and Pharmacological Characterization of Two Serotonin Type 7 Receptor Isoforms from Mythimna separata” (International Journal of Molecular Sciences, 2022).
Structures can show the parent of a compound that is named as a salt.

Chains of the proteins cited; added tags and fusions are not shown.
UniProt A0AAD7YHG5, entry or part of it: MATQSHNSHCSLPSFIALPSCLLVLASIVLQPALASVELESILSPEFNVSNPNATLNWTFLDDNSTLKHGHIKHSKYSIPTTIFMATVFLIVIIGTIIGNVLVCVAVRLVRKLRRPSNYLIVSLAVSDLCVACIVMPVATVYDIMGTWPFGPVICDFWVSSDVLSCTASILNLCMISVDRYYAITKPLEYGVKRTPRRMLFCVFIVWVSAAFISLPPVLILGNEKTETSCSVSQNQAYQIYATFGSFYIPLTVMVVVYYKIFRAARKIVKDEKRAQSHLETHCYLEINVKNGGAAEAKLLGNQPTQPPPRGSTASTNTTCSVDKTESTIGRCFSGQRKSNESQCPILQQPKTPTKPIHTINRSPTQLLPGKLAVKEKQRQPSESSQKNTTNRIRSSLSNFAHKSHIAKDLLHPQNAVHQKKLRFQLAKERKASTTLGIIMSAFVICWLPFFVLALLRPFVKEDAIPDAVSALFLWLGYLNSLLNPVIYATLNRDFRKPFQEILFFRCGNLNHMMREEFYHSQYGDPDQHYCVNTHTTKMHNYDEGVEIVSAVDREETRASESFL
UniProt A0AAD7YHG5, entry or part of it DEL320-414: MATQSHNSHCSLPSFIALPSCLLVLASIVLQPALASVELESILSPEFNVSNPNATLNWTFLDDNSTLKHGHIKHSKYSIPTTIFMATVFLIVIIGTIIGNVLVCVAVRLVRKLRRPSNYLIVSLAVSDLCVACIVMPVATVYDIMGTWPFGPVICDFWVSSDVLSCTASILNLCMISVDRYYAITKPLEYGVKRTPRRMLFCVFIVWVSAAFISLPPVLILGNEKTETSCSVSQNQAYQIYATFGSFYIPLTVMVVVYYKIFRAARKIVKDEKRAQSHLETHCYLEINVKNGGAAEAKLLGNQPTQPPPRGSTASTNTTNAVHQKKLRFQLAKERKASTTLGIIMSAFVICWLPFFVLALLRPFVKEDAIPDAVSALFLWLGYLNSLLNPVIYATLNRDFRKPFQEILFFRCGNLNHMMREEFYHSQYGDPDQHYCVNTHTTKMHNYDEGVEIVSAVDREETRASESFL

Columns and labels:
[1] = molecular target: Msep5-HT7L receptor (Mythimna separata, UniProt A0AAD7YHG5); test: cAMP assay, agonist activation of Msep5-HT7L in stably transfected HEK293 cells; assay type: cell-based
Protocol: (§1) HEK-293 cells were cultured in D-MEM (Gibco BRL, Gaithersburg, MD, USA) supplemented with 10% FBS (Gibco BRL, Gaithersburg, MD, USA) at 37 °C and 5% CO2. Four microgram recombinant plasmids with 10 μL of lipofectamine 2000 (Invitrogen, Carlsbad, CA, USA) were introduced into exponentially growing HEK 293 cells. The 0.8 mg/mL antibiotic G418 (Sigma, St. Louis, MO, USA) was added to the medium to select for cells that were stably expressed the Msep5-HT7 receptors. After fourteen days of G418 selection, three G418-resistant colonies were trypsinized in cloning cylinders and transferred to 12-well plastic plates for expansion.
(§2) Intracellular cAMP concentrations were measured as previously described. Briefly, when cells were cultured for 2 days to the concentration of 1 × 10^6 cells/mL, culture media were removed and the cells were washed two times with cold PBS (pH 7.4), then the cells were preincubated in 450 μL of Dulbecco’s phosphate-buffered solution (DPBS) containing 100 μM phosphodiesterase inhibitor 3-isobutyl-1-methylxanthine (IBMX) for 20 min at room temperature. After the preincubation, 50 μL of DPBS, containing various concentrations of reagents, was added into the stable transfected cells for incubation for 30 min at 37 °C. The cells were washed three times with cold PBS (pH 7.4) and then lysed in 250 μL of cold cell lysis buffer by re-freezing. The cell debris was removed by centrifugation at 600× g for 10 min at 4 °C. The amount of intracellular cAMP extracted from harvested supernatant was determined using an ELISA reagent (R&D Systems, Minneapolis, MN, USA). Each measurement was performed in duplicate, and three independent assays were carried out for each reagent and concentration tested.

[2] = molecular target: Msep5-HT7S receptor (Mythimna separata, UniProt A0AAD7YHG5, DEL320-414); test: cell-based
Protocol: as §1, §2

Q: `NCCc1c[nH]c2ccc(O)cc12` [5-HT, serotonin hydrochloride] was tested. Which EC50 ([1]; EC50, 5-HT7L, cAMP production, HEK-293 cells) did it give?
A: Its EC50 is 92 nM.

Q: And the EC50 ([1]; Half-maximal stimulation (EC50) of cAMP production, Msep5-HT7L-expressing cells)?
A: The EC50 was 92.4 nM.

Q: And the EC50 ([1]; logEC50 (Mean ± SEM), 5-HT7L, cAMP production, HEK-293 cells, given as negative log value)?
A: The EC50 was 93.3 nM.

Q: What about the EC50 ([2]; EC50, 5-HT7S, cAMP production, HEK-293 cells) of the same compound?
A: The EC50 was 35 nM.

Q: What about the EC50 ([2]; Half-maximal stimulation (EC50) of cAMP production, Msep5-HT7S-expressing cells) of the same compound?
A: The EC50 was 35.1 nM.

Q: And the EC50 ([2]; logEC50 (Mean ± SEM), 5-HT7S, cAMP production, HEK-293 cells, given as negative log value)?
A: Its EC50 is 34.7 nM.
